One substance from patent publication US20140314791A1, “METHODS OF TREATING CANCER” (DANA-FARBER CANCER INSTITUTE, INC., priority 2012, published 2014) can be followed below.

Where two headings read alike, the source gives them in different places.

The subject of test [1] is γH2AX in Lkb1-null (t2, t4, and t5) cells. The note with it: 300 nM, 3 h.
Another test concerns γH2AX. As to the kind of experiment: Western blot analysis of γH2AX after CHEK1 inhibitor treatment. Format: cell-based. On the technique in general: Immunoblotting shows a protein as a band on a membrane.
The test system of test [2] is Lkb1-wt and Lkb1-null cells. The note with it: fixed dose of 660 nM, 2 days.
The test system of test [3] is Kras/p53, Kras/Lkb1, and Kras/p53/Lkb1 lung tumors. The conditions noted are these: 2 doses.
The test system of test [4] is γH2AX in Lkb1-wt (634, 855, and 857) cells. The conditions noted are these: 300 nM, 3 h.

As to AZD7762, the “cells having DNA DSBs (γH2AX, flow cytometry)” value stood at 7.76% in test [1] (first of three Lkb1-null values (lines t2, t4, t5)); 17.10% in test [1] (second of three Lkb1-null values (lines t2, t4, t5)); 10.30% in test [1] (third of three Lkb1-null values (lines t2, t4, t5)); 3.06% in test [4] (first of three Lkb1-wt values); 4.42% in test [4] (second of three Lkb1-wt values); 2.88% in test [4] (third of three Lkb1-wt values). Also, the “phosphorylation of H2AX (Western blot)” value in the test on γH2AX (3 h at the GI50 concentration) is recorded as “induced phosphorylation of H2AX”. Besides, the “difference on γH2AX between Lkb1-null and Lkb1-wt cells (Western blot)” value in the test on γH2AX (3 h treatment) is given as “did not reveal a noticeable difference”. In test [2], the “cell growth relative to DMSO-treated cells” value is listed as “greater growth inhibitory effects on the Lkb1-null than Lkb1-wt cells”. Further, the “18-FDG uptake of tumors (SUVmax) after treatment” value in test [3] (Kras/Lkb1 and Kras/p53 tumors, respectively) is “little or no response”; in test [3] (Kras/p53/Lkb1 tumors), “most effective in reducing 18-FDG uptake”.
